## Yeast mating assay 2: variants of the scFv Ab-95

Data: MIT Lincoln Laboratory AlphaSeq set, Engelhart et al. 2022, doi:10.1038/s41597-022-01779-4, as distributed in FLAb.

The target is the same throughout: PDVDLGDISGINAS, from the HR2 region of SARS-CoV-2 spike.

Each scFv is VH, three GGGGS repeats, VL, as in the parent Ab-95, and differs from it in the CDRs of the light chain only.
VH: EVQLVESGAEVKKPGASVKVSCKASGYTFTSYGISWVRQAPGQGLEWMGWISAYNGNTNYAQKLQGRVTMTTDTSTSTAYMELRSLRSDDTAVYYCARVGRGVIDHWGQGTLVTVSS
VL: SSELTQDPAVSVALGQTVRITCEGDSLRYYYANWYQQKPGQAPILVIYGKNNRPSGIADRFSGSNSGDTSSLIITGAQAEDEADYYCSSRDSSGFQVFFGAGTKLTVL

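The parent was found by panning a naive human phage display library on the peptide. The library (AAYL52) carries one to three amino acid substitutions per variant, with no insertions or deletions. The scFvs were displayed on barcoded MATa yeast, the peptide on MATalpha yeast. Pairs that bind mate more often; barcode pairs of the diploids are counted by sequencing. Scores were corrected for input abundance and mapped to Kd with protein pairs of known affinity run in the same pool. Mating was done three times.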

Substitutions are numbered in sequence along the VL above, starting at 1 (not Kabat). Values are log10 of the apparent Kd in nM; lower means stronger binding. "ND" marks a missing value. The strain was present, yet no cells mated with the target were sequenced in that replicate, which points to weak or no binding. Parent in this assay: reference entry 2.31, copy in this library 2.25.

changes,"log10 Kd, replicates",control signals
L27W P54E S55G,2.87 / 2.83 / 2.78,1/9 (4.21)
G24L N33Q S55A,ND / ND / ND,0/9
N51R G94C F98I,3.58 / ND / 3.44,2/9 (3.47)
Y31D N51A R53L,2.36 / 2.12 / 1.64,5/9 (3.77)
Y29E R53K Q96G,3.81 / 3.87 / 4.25,1/9 (4.48)
G24T D25W F98D,4.14 / ND / ND,1/9 (4.02)
L27P Q96P V97Q,ND / ND / ND,2/9 (3.55)
E23K P54D G94W,2.43 / 2.59 / 1.95,4/9 (4.34)
S89P R90P F98L,4.39 / 5.49 / ND,4/9 (4.07)
A32I Q96M V97A,4.80 / 3.63 / 3.49,2/9 (4.75)
S26R L27N Y31T,4.70 / 4.05 / 4.58,4/9 (4.22)
D25Q R28K V97S,3.94 / ND / 4.16,2/9 (3.73)
D25A R53M F98G,3.82 / 3.76 / 3.68,6/9 (3.81)
G49W R53G Q96S,ND / 5.58 / ND,3/9 (5.02)
A32N R90K F98G,5.00 / 4.95 / 4.52,2/9 (5.03)
D25Q G49Q S92T,ND / ND / ND,0/9
S26E P54E D91L,ND / ND / ND,0/9
L27G A32Q V97E,ND / ND / 4.06,2/9 (3.68)
S55D S88R S92L,3.59 / 3.73 / ND,2/9 (3.05)
G49S N51E S89N,3.21 / 3.88 / 2.91,3/9 (4.28)
G24P Y30C N51I,ND / 4.53 / 3.97,3/9 (3.88)
N51E G94P V97G,3.18 / 3.00 / ND,2/9 (4.05)
S93H F95P,2.04 / 2.28 / 1.96,3/9 (4.11)
D25P G49F S93M,4.18 / ND / ND,4/9 (4.08)
L27K P54K V97D,ND / ND / ND,0/9
K50Y D91Y Q96D,3.58 / ND / ND,2/9 (4.29)
D25V S89Y G94P,2.80 / 3.10 / 3.67,1/9 (3.35)
N33P N51K Q96V,4.06 / ND / ND,4/9 (3.82)
N33K G49P D91K,ND / 4.32 / ND,1/9 (2.86)
L27M Y29V Q96D,ND / ND / ND,3/9 (4.26)
Y30Q K50W R90Q,ND / 4.40 / 4.56,1/9 (3.37)

Picked from the list: the 4 lowest averages where every replicate gave a value.

changes	log10 Kd, replicates	control signals
Y31D N51A R53L	2.36 / 2.12 / 1.64	5/9 (3.77)
S93H F95P	2.04 / 2.28 / 1.96	3/9 (4.11)
E23K P54D G94W	2.43 / 2.59 / 1.95	4/9 (4.34)
L27W P54E S55G	2.87 / 2.83 / 2.78	1/9 (4.21)

Nonspecific signal, from three strains lacking the peptide, appeared in 28% of pairings of library AAYL52, centred on 3.91 (5% of these signals below 2.90); values are not corrected for it. For each scFv, signals with the empty controls are counted beside the result, with their mean in brackets.